According to PubChem BioAssay AID1745844 (Carcinogenic Potency Database (CPDB), 2022):
Where “and” joins values, the source holds several entries; their conditions need not be identical. Equal values may be shown once. Calls of active or inactive are those of the source. No rule for the calls is given here.

Test system: rodent lifetime carcinogenesis bioassay, tumor incidence TD50
Test: chronic cancer bioassays in animals – CPDB, compiled studies (AID 1745844)

## CN(N=O)C(=N)N[N+](=O)[O-]
monkey, strain Rhesus [Macaca mulatta], both sexes, in feed, site: liver, lesion: hepatocellular adenoma
  TD50: 3.03 mg/kg/day
mouse, strain C57BL/6, females, in drinking water, site: small intestine, lesion: adenocarcinoma, dosed 27 weeks, study length 52 weeks
  TD50: 2.03 mg/kg/day
rat, strain Buffalo-Mai, males, in drinking water, site: stomach, glandular, lesion: carcinoma, invasive, dosed 52 weeks, study length 52 weeks
  carcinogen call: inactive: negative
rat, strain Buffalo-Mai, males, in drinking water, site: stomach, glandular, lesion: carcinoma, preinvasive, dosed 52 weeks, study length 52 weeks
  carcinogen call: inactive: negative
rat, strain F344/DuCrj, males, in drinking water, site: stomach, lesion: adenocarcinoma, dosed 30 weeks, study length 70 weeks
  TD50: 1.81 mg/kg/day
rat, strain F344/DuCrj, males, in drinking water, site: stomach, lesion: adenoma, dosed 30 weeks, study length 70 weeks
  TD50: 1.37 mg/kg/day
rat, strain Fischer 344, females, in feed, site: liver, lesion: hepatocellular carcinoma, dosed 103 weeks, study length 103 weeks
  TD50: 17.8 mg/kg/day
rat, strain Fischer 344, females, in feed, site: stomach, lesion: carcinoma, dosed 103 weeks, study length 103 weeks
  TD50: 1.44 mg/kg/day
rat, strain Fischer 344, males, in drinking water, site: stomach, glandular, lesion: adenocarcinoma, dosed 50 weeks, study length 105 weeks
  TD50: 3.19 mg/kg/day
rat, strain Fischer 344, males, in drinking water, site: stomach, glandular, lesion: adenocarcinoma, dosed 50 weeks, study length 125 weeks
  TD50: 5.22 mg/kg/day
rat, strain Fischer 344, males, in drinking water, site: stomach, glandular, lesion: adenoma, dosed 50 weeks, study length 105 weeks
  TD50: 1.65 mg/kg/day
rat, strain Fischer 344, males, in drinking water, site: stomach, glandular, lesion: adenoma, dosed 50 weeks, study length 125 weeks
  TD50: 2.38 mg/kg/day
rat, strain Fischer 344, males, in drinking water, site: stomach, glandular, lesion: sarcoma, dosed 50 weeks, study length 105 weeks
  TD50: 2.48 mg/kg/day
rat, strain Fischer 344, males, in drinking water, site: stomach, glandular, lesion: sarcoma, dosed 50 weeks, study length 125 weeks
  TD50: 16.5 mg/kg/day
rat, strain Fischer 344, males, in drinking water, site: stomach, glandular, lesion: several types, types named in the paper, dosed 50 weeks, study length 105 weeks
  TD50: 0.592 mg/kg/day
rat, strain Fischer 344, males, in drinking water, site: stomach, glandular, lesion: several types, types named in the paper, dosed 50 weeks, study length 125 weeks
  TD50: 1.42 mg/kg/day
rat, strain Fischer 344, males, in feed, site: stomach, lesion: carcinoma, dosed 103 weeks, study length 103 weeks
  TD50: 0.724 mg/kg/day
rat, strain Sprague-Dawley, males, in drinking water, site: stomach, glandular, lesion: adenocarcinoma, dosed 30 weeks, study length 52 weeks
  TD50: 1.61 mg/kg/day
rat, strain Sprague-Dawley, males, in drinking water, site: stomach, glandular, lesion: adenocarcinoma, dosed 52 weeks, study length 52 weeks
  TD50: 1.12 mg/kg/day
rat, strain WKY/NCrj (Wistar), males, in drinking water, site: gastric mucosa, lesion: adenocarcinoma, dosed 30 weeks, study length 60 weeks
  TD50: 0.895 mg/kg/day
rat, strain Wistar-Mai-Furth, males, in drinking water, site: stomach, glandular, lesion: carcinoma, invasive, dosed 52 weeks, study length 52 weeks
  TD50: 6.75 mg/kg/day
rat, strain Wistar-random, males, in drinking water, site: stomach, glandular, lesion: carcinoma, invasive, dosed 52 weeks, study length 52 weeks
  TD50: 1.03 mg/kg/day
rat, strain Wistar-random, males, in drinking water, site: stomach, glandular, lesion: carcinoma, preinvasive, dosed 52 weeks, study length 52 weeks
  TD50: 2.72 mg/kg/day
rat, strain Wistar, females, in drinking water, site: bile duct, lesion: cystadenoma, dosed 35 weeks, study length 60 weeks
  TD50: 0.178 mg/kg/day
rat, strain Wistar, females, in drinking water, site: duodenum, lesion: adenocarcinoma, dosed 32 weeks, study length 57 weeks
  TD50: 6.38 mg/kg/day
rat, strain Wistar, females, in drinking water, site: stomach, glandular, lesion: adenocarcinoma, dosed 32 weeks, study length 57 weeks
  TD50: 6.38 mg/kg/day
rat, strain Wistar, females, in drinking water, site: stomach, glandular, lesion: carcinoid tumor, malignant, dosed 35 weeks, study length 60 weeks
  TD50: 2.38 mg/kg/day
rat, strain Wistar, males, in drinking water, site: duodenum, lesion: adenocarcinoma, dosed 28 weeks, study length 52 weeks
  TD50: 0.584 mg/kg/day
rat, strain Wistar, males, in drinking water, site: duodenum, lesion: adenocarcinoma, dosed 32 weeks, study length 57 weeks
  TD50: 2.72 mg/kg/day
rat, strain Wistar, males, in drinking water, site: duodenum, lesion: adenocarcinoma, dosed 75 weeks, study length 75 weeks
  TD50: 0.91 mg/kg/day
rat, strain Wistar, males, in drinking water, site: duodenum, lesion: adenoma, dosed 28 weeks, study length 52 weeks
  TD50: 23.7 mg/kg/day
rat, strain Wistar, males, in drinking water, site: duodenum, lesion: leiomyosarcoma, dosed 28 weeks, study length 52 weeks
  TD50: 22.8 mg/kg/day
rat, strain Wistar, males, in drinking water, site: duodenum, lesion: malignant tumor, dosed 28 weeks, study length 52 weeks
  TD50: 0.516 mg/kg/day
rat, strain Wistar, males, in drinking water, site: duodenum, lesion: one or several types, types not named, dosed 30 weeks, study length 54 weeks
  TD50: 3.44 mg/kg/day
rat, strain Wistar, males, in drinking water, site: esophagus, lesion: squamous-cell carcinoma, dosed 75 weeks, study length 75 weeks
  TD50: 11 mg/kg/day
rat, strain Wistar, males, in drinking water, site: forestomach, lesion: several types, types named in the paper, dosed 28 weeks, study length 52 weeks
  TD50: 5.79 mg/kg/day
rat, strain Wistar, males, in drinking water, site: gastric mucosa, lesion: adenocarcinoma, dosed 75 weeks, study length 75 weeks
  TD50: 5.31 mg/kg/day
rat, strain Wistar, males, in drinking water, site: gastrointestinal tract, lesion: adenocarcinoma, dosed 28 weeks, study length 58 weeks
  TD50: 0.81 mg/kg/day
rat, strain Wistar, males, in drinking water, site: gastrointestinal tract, lesion: several types, types named in the paper, dosed 26 weeks, study length 52 weeks
  TD50: 1.6 mg/kg/day and 1.92 mg/kg/day
rat, strain Wistar, males, in drinking water, site: gastrointestinal tract, lesion: several types, types named in the paper, dosed 32 weeks, study length 87 weeks
  TD50: 0.581 mg/kg/day
rat, strain Wistar, males, in drinking water, site: liver, lesion: cholangioma, cystic, dosed 28 weeks, study length 52 weeks
  TD50: 4.58 mg/kg/day
rat, strain Wistar, males, in drinking water, site: liver, lesion: hepatocellular adenoma, dosed 77 weeks, study length 77 weeks
  TD50: 14.3 mg/kg/day
rat, strain Wistar, males, in drinking water, site: pylorus, lesion: adenocarcinoma, dosed 28 weeks, study length 52 weeks
  TD50: 0.428 mg/kg/day
rat, strain Wistar, males, in drinking water, site: pylorus, lesion: malignant tumor, dosed 28 weeks, study length 52 weeks
  TD50: 0.41 mg/kg/day
rat, strain Wistar, males, in drinking water, site: pylorus, lesion: several types, types named in the paper, dosed 28 weeks, study length 52 weeks
  TD50: 0.284 mg/kg/day
rat, strain Wistar, males, in drinking water, site: small intestine, lesion: adenocarcinoma, dosed 28 weeks, study length 58 weeks
  TD50: 1.21 mg/kg/day
rat, strain Wistar, males, in drinking water, site: stomach, glandular, lesion: adenocarcinoma, dosed 28 weeks, study length 58 weeks
  TD50: 4.31 mg/kg/day
rat, strain Wistar, males, in drinking water, site: stomach, glandular, lesion: adenocarcinoma, dosed 30 weeks, study length 65 weeks
  TD50: 0.523 mg/kg/day
rat, strain Wistar, males, in drinking water, site: stomach, glandular, lesion: adenocarcinoma, dosed 77 weeks, study length 77 weeks
  TD50: 3.06 mg/kg/day
rat, strain Wistar, males, in drinking water, site: stomach, glandular, lesion: adenoma, dosed 77 weeks, study length 77 weeks
  TD50: 1.13 mg/kg/day
rat, strain Wistar, males, in drinking water, site: stomach, glandular, lesion: carcinoid tumor, malignant, dosed 35 weeks, study length 60 weeks
  TD50: 2.09 mg/kg/day
rat, strain Wistar, males, in drinking water, site: stomach, glandular, lesion: one or several types, types not named, dosed 26 weeks, study length 52 weeks
  TD50: 7.06 mg/kg/day
rat, strain Wistar, males, in drinking water, site: stomach, glandular, lesion: several types, types named in the paper, dosed 26 weeks, study length 52 weeks
  TD50: 2.28 mg/kg/day
rat, strain Wistar, males, in drinking water, site: stomach, glandular, lesion: several types, types named in the paper, dosed 77 weeks, study length 77 weeks
  TD50: 0.693 mg/kg/day
rat, strain albino, both sexes, in drinking water, site: forestomach, lesion: papilloma, dosed 78 weeks, study length 78 weeks
  TD50: 22.9 mg/kg/day
rat, strain albino, both sexes, in drinking water, site: stomach, glandular, lesion: adenocarcinoma, dosed 78 weeks, study length 78 weeks
  TD50: 22.9 mg/kg/day
rat, strain albino, males, in drinking water, site: gastric mucosa, lesion: adenocarcinoma, dosed 34 weeks, study length 52 weeks
  TD50: 0.403 mg/kg/day

## NC(=O)Nc1ccc([As](=O)(O)O)cc1
rat, strain FDRL, females, in feed, site: all sites, lesion: lymphatic leukemia, dosed 93 weeks, study length 104 weeks
  TD50: inactive: 4590 mg/kg/day
rat, strain FDRL, males, in feed, site: thymus gland, lesion: reticulum-cell sarcoma, dosed 93 weeks, study length 104 weeks
  TD50: inactive: 4500 mg/kg/day

## COP(=S)(OC)SCCNC(C)=O
rat, strain Sprague-Dawley, females, in feed, site: liver, lesion: one or several types, types not named, dosed 104 weeks, study length 104 weeks
  carcinogen call: inactive: negative
rat, strain Sprague-Dawley, males, in feed, site: liver, lesion: one or several types, types not named, dosed 104 weeks, study length 104 weeks
  carcinogen call: inactive: negative

## CCN=C(N)N(N=O)[N+](=O)[O-]
mouse, strain CBA/H-T6, both sexes, in drinking water, site: any site (literature study), lesion: several types, types named in the paper, dosed 43 weeks, study length 69 weeks
  TD50: 284 mg/kg/day
mouse, strain CBA/H-T6, both sexes, in drinking water, site: duodenum, lesion: adenocarcinoma, dosed 43 weeks, study length 69 weeks
  TD50: 4.2 mg/kg/day
mouse, strain CBA/H-T6, both sexes, in drinking water, site: duodenum, lesion: several types, types named in the paper, dosed 43 weeks, study length 69 weeks
  TD50: 2.84 mg/kg/day
mouse, strain CBA/H-T6, both sexes, in drinking water, site: esophagus, lesion: several types, types named in the paper, dosed 43 weeks, study length 69 weeks
  TD50: 3.85 mg/kg/day
mouse, strain CBA/H-T6, both sexes, in drinking water, site: esophagus, lesion: squamous-cell carcinoma, dosed 43 weeks, study length 69 weeks
  TD50: 5.6 mg/kg/day
mouse, strain CBA/H-T6, both sexes, in drinking water, site: liver, lesion: hemangioendothelial sarcoma, dosed 43 weeks, study length 69 weeks
  TD50: 70.3 mg/kg/day
mouse, strain CBA/H-T6, both sexes, in drinking water, site: stomach, lesion: several types, types named in the paper, dosed 43 weeks, study length 69 weeks
  TD50: 8.03 mg/kg/day

## C1CN1
mouse, strain B6AKF1, females, oral dosing, site: liver, lesion: hepatoma, dosed 76 weeks, study length 76 weeks
  TD50: 3.29 mg/kg/day
mouse, strain B6AKF1, females, oral dosing, site: lung, lesion: adenoma, dosed 76 weeks, study length 76 weeks
  TD50: 0.283 mg/kg/day
mouse, strain B6AKF1, males, oral dosing, site: liver, lesion: hepatoma, dosed 76 weeks, study length 76 weeks
  TD50: 0.8 mg/kg/day
mouse, strain B6AKF1, males, oral dosing, site: lung, lesion: adenoma, dosed 76 weeks, study length 76 weeks
  TD50: 0.485 mg/kg/day
mouse, strain B6AKF1, males, oral dosing, site: lung, lesion: bronchogenic carcinoma, dosed 76 weeks, study length 76 weeks
  TD50: 2.14 mg/kg/day
mouse, strain B6C3F1, females, oral dosing, site: liver, lesion: hepatoma, dosed 76 weeks, study length 76 weeks
  TD50: 0.5 mg/kg/day
mouse, strain B6C3F1, females, oral dosing, site: lung, lesion: adenoma, dosed 76 weeks, study length 76 weeks
  carcinogen call: positive
mouse, strain B6C3F1, males, oral dosing, site: any site (literature study), lesion: several types, types named in the paper, dosed 77 weeks, study length 77 weeks
  TD50: 0.223 mg/kg/day
mouse, strain B6C3F1, males, oral dosing, site: liver, lesion: hepatoma, dosed 77 weeks, study length 77 weeks
  TD50: 0.295 mg/kg/day
mouse, strain B6C3F1, males, oral dosing, site: lung, lesion: adenoma, dosed 77 weeks, study length 77 weeks
  TD50: 0.364 mg/kg/day
mouse, strain B6C3F1, males, oral dosing, site: lung, lesion: several types, types named in the paper, dosed 77 weeks, study length 77 weeks
  TD50: 0.295 mg/kg/day
